Measured values: ChEMBL document CHEMBL1153804, “Optimization of a series of quinazolinone-derived antagonists of CXCR3” (Bioorg Med Chem Lett, 2009)

Experiment: Antagonist activity against human CXCR3 expressed in human PBMC assessed as inhibition of cell migration in response to ITAC in plasma

- IC50: 0.115 µM
Compound: CCS(=O)(=O)CCN(C(=O)Cc1ccc(F)c(C(F)(F)F)c1)[C@H](C)c1nc2ncccc2c(=O)n1-c1ccc(C#N)cc1
